Yeast mating assay 2: variants of the scFv Ab-95

Antigen: PDVDLGDISGINAS, a 14-residue peptide of the SARS-CoV-2 spike HR2 region.

Parent: Ab-95, a human scFv built as VH, a (GGGGS)3 linker, VL. Only the CDRs of the light chain vary.
VH: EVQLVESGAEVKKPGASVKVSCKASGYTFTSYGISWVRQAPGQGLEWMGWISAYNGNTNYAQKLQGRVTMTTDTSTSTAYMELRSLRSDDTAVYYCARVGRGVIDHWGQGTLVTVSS
VL: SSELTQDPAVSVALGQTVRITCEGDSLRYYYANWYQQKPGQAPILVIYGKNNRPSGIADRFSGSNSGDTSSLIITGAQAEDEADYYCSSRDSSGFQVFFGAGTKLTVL

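The starting antibody came from a phage panning campaign against this peptide. The library (AAYL52) carries one to three amino acid substitutions per variant, with no insertions or deletions. The assay is AlphaSeq: two haploid yeast populations carry antibody and antigen on their surface. Mating (16 h, 30 °C) was followed by selection of diploids and sequencing of their barcodes. Each replicate has its own calibration line, from reference interactions of the BCL2 family. Mating was done three times.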

Each variant is given by its three light chain CDRs, as the data file delimits them; those of the parent are EGDSLRYYYAN, GKNNRPS, SSRDSSGFQVF. Every variant below is changed at G24 of the VL (sequential numbering). The read-out is the apparent dissociation constant on a log10 scale (nM): the lower, the stronger. A mean of the replicates is given; it leaves out those without a signal. A pair that was not seen in any replicate is written "no signal"; this usually means weak binding, but a binder can also be missed.

CDR-L1,CDR-L2,CDR-L3,mean log10 Kd (nM),seen in
EQDSLRVYYAN,GKNNRPS,SSRDSSGFQYF,4.28,2/3
EEDSLRYYYAN,GPNNRPS,SSRDSMGFQVF,3.58,2/3
EVDSLRYYYGN,GKNNRPS,SSRDSSGFQVF,4.02,2/3
EDDSLRYYYAN,GANNRPS,SSRDSSMFQVF,no signal,0/3
EYDSLRYYNAN,GKNNRPS,SSRDVSGFQVF,2.63,3/3
ENDSLRYYYAN,GKNNRPS,SSRDSDGFQVG,4.26,2/3
ENDSLRYNYAN,GKNNRPS,SSRDSSGEQVF,3.39,3/3
ELDSLRYFEAN,GKNNRPS,SSRDSSGFQVF,3.00,3/3
EYDSLRYYYAN,GKNNRPS,ISRDSSGFHVF,5.64,1/3
EVDSLRYYYAN,GHNLRPS,SSRDSSGFQVF,no signal,0/3
EFDSLRYYYAN,GQNGRPS,SSRDSSGFQVF,3.96,2/3
ESDSLRYYYAN,GKQNRPS,SSRDSSGFQVE,4.10,1/3
EEDSLRYYYAN,GKNNRMS,SSRDSSGFMVF,no signal,0/3
ENDSLRYYYAN,GKNNRPS,SNRDSPGFQVF,3.75,3/3
ESDSLRYYYAN,GKNNRPS,SSRTSSGFDVF,2.81,3/3
WVDSLRYYYAN,GKNNRPS,STRDSSGFQVF,no signal,0/3
EQPSLRVYYAN,GKNNRPS,SSRDSSGFQVF,5.33,2/3
ECDSLRYYYAN,GKNNRPS,SSRGSMGFQVF,3.34,2/3
ELDSLRYYYAN,GKNDRPS,SSRDSSEFQVF,3.31,2/3
EPDSLRYYYAN,GKNNRPS,SSRFWSGFQVF,2.80,1/3
EISSLRYYYAN,GKNNVPS,SSRDSSGFQVF,4.48,2/3
EIDSLRYYYAN,GKHNRPS,KSRDSSGFQVF,no signal,0/3
ELDSLEYYYQN,GKNNRPS,SSRDSSGFQVF,2.55,3/3
EDDSLRYYYAN,GKNNRPS,SSRDSSGGQVF,3.03,3/3
ERDSDRYYYAN,GKPNRPS,SSRDSSGFQVF,4.03,2/3
EIDSLRYYYAN,GKNNRPS,SSRASSGFCVF,3.77,2/3
EWDSLRYYYAS,GKNNRPS,SSRDSSNFQVF,4.08,2/3
DYDTLRYYYAN,GKNNRPS,SSRDSSGFQVF,3.35,1/3
ESDSLRYYYAN,GKNNRPS,SSRDSSGFQVF,2.50,3/3
ETDSLRYYYAN,NKINRPS,SSRDSSGFQVF,3.27,2/3
EDWSLRYYYAN,GKNNRPS,SSRDSSGFQVF,3.04,1/3
ENDSLRYKYAN,GKNNRPS,SSRDSSTFQVF,4.30,2/3
ETDSLRYYYDN,GKNNRPS,SSRDSSGFAVF,4.16,2/3
EMDSMRYYYAN,GKNNRPS,SSRDSSGDQVF,3.36,2/3
EADSLRYYHAN,GKNNRPS,SSRPSSGFQVF,3.93,3/3
HVDALRYYYAN,GKNNRPS,SSRDSSGFQVF,3.97,3/3
EWDSLRYYYAN,GKNNRFS,SSRDSKGFQVF,3.44,1/3
EVWSLRYYYAN,GKNNRPS,SSRDSSGFQVN,3.57,2/3
EEDSARYYYAN,GKNNRPS,SSSDSSGFQVF,3.85,1/3
ESDSLRYYYAN,GKLNRPS,SSRDSSGFQVF,4.67,2/3
EADFLRYYYAN,GKNNRPS,SSRDSSGPQVF,3.94,3/3
EEDSLRYYYAN,NVNNRPS,SSRDSSGFQVF,no signal,0/3
EHDSLRYYYAN,GKNNRPS,SPRDSKGFQVF,3.65,2/3
EVDSLRYYYAN,GKNNGPS,SSRDSSTFQVF,no signal,0/3
EKDSLRCYYAN,GKNNRPS,SSRDSSGFQVF,4.26,3/3
EEDSLRYYYAN,GKNNRPS,SSFDSSGHQVF,no signal,0/3
EEDSLRNYYAN,GKNNRPD,SSRDSSGFQVF,4.14,3/3
EEDSLRYYYAN,GKNNRPS,SQRDSSGFIVF,4.25,2/3
EQDSLRYYYAN,GKNNRPS,SSRDSSGFQVF,3.89,3/3
EHDSLRYYYAN,GKNNAPS,SSRDSSGFQFF,5.88,1/3
EVDQLRYFYAN,GKNNRPS,SSRDSSGFQVF,no signal,0/3
ETDSLRHYYAN,GKNNRPS,SSRDSSGFQVF,2.83,3/3
EWDSLRYYYAN,GKNNRPI,SSRDSSPFQVF,4.64,1/3
EQDSLRYYYAN,GKNIRPS,SSRDDSGFQVF,3.93,3/3
EFDSLRYYYAN,GKNNRPS,SSRDYSGFQVF,2.99,3/3
EFDSLRYYYAN,GQNNRPS,SSRDSSGFQVH,2.30,3/3
EDDLLRYYYAN,GKNNTPS,SSRDSSGFQVF,2.56,3/3
EEDSLRYYYAY,GKNNRPS,SSNDSSGFQVF,3.25,1/3
ELDELRYYYAN,GKNNRPS,SSRDSSGFQVF,3.92,3/3
ERDSLRPYYAN,GKNNRPS,SDRDSSGFQVF,3.59,2/3
EADSLRYYYAN,GKNNRPS,SSRDSSGFAVF,3.80,3/3
ETESLRYYYAN,GKNNRPS,SSRDSWGFQVF,3.68,3/3
ELQSLRYYYAN,GKNHRPS,SSRDSSGFQVF,2.33,3/3
EWVSLRYYYAN,GKWNRPS,SSRDSSGFQVF,no signal,0/3
CPDSLRYYYAN,GKNNRWS,SSRDSSGFQVF,no signal,0/3
EPDSLRYYYAN,GKNNRPD,SSRDSSGFQVF,3.26,3/3
ETDTLRYYYAN,GKNNRPS,SSRMSSGFQVF,4.46,3/3
ERDSLRYYYAN,GKNNRQS,SSRDSIGFQVF,no signal,0/3

Picked from the list: the 9 lowest averages where every replicate gave a value.

| CDR-L1 | CDR-L2 | CDR-L3 | mean log10 Kd (nM) | seen in |
|---|---|---|---|---|
| EFDSLRYYYAN | GQNNRPS | SSRDSSGFQVH | 2.30 | 3/3 |
| ELQSLRYYYAN | GKNHRPS | SSRDSSGFQVF | 2.33 | 3/3 |
| ESDSLRYYYAN | GKNNRPS | SSRDSSGFQVF | 2.50 | 3/3 |
| ELDSLEYYYQN | GKNNRPS | SSRDSSGFQVF | 2.55 | 3/3 |
| EDDLLRYYYAN | GKNNTPS | SSRDSSGFQVF | 2.56 | 3/3 |
| EYDSLRYYNAN | GKNNRPS | SSRDVSGFQVF | 2.63 | 3/3 |
| ESDSLRYYYAN | GKNNRPS | SSRTSSGFDVF | 2.81 | 3/3 |
| ETDSLRHYYAN | GKNNRPS | SSRDSSGFQVF | 2.83 | 3/3 |
| EFDSLRYYYAN | GKNNRPS | SSRDYSGFQVF | 2.99 | 3/3 |

Parent in this assay: reference entry 2.31, copy in this library 2.25. Nonspecific signal, from three strains lacking the peptide, appeared in 28% of pairings of library AAYL52, centred on 3.91 (5% of these signals below 2.90); values are not corrected for it.

The measurements come from Engelhart et al. 2022 (doi:10.1038/s41597-022-01779-4) through the FLAb antibody collection.